The results in this text go back to patent publication US8501708B2, “Adenosine compounds and their use thereof” (Inotek Pharmaceuticals Corporation, priority 2011, dated 2013).

By UniProt entry, the sequences of proteins in these tests, tags left out.
UniProt P30542, whole entry: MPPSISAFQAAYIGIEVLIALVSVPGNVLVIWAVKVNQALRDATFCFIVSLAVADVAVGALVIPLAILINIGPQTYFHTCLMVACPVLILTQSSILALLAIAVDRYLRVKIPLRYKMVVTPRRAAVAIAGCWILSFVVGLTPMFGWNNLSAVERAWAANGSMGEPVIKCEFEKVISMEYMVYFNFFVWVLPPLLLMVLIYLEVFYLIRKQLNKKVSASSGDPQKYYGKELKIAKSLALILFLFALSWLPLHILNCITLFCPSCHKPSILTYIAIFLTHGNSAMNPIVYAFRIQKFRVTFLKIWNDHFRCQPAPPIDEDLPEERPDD

Molecules are shown by their SMILES.

The target in this assay is human recombinant A1 adenosine receptor (Homo sapiens (Human), UniProt P30542). Nature of the assay: Adenosine receptor binding, displacement of specific [3H]CCPA binding. Particulars: [3H]CCPA displacement, CHO cells stably transfected with human recombinant A1 adenosine receptor. The source says:
The compounds were studied in binding assays to determine their selectivity and potency to the A1, A2a and A3 adenosine receptors.
For `OC[C@H]1O[C@@H](n2cnc3c(N[C@@H]4CCC[C@H]4OCc4ccc(F)cc4)ncnc32)[C@H](O)[C@@H]1O` [Compound 20, (2R,3R,4S,5R)-2-(6-((1R,2R)-2-(4-fluorobenzyloxy)cyclopentylamino)-9H-purin-9-yl)-5-(hydroxymethyl)tetrahydrofuran-3,4-diol], the Ki came out at 6.08 nM.

With `OC[C@H]1O[C@@H](n2cnc3c(N[C@@H]4CCC[C@H]4OCc4cccc(F)c4)ncnc32)[C@H](O)[C@@H]1O` [Compound 19, (2R,3R,4S,5R)-2-(6-((1R,2R)-2-(3-fluorobenzyloxy)cyclopentylamino)-9H-purin-9-yl)-5-(hydroxymethyl)tetrahydrofuran-3,4-diol], the inhibition constant (Ki) turned out to be 3.53 nM.

Regarding `OC[C@H]1O[C@@H](n2cnc3c(N[C@H]4CCC[C@@H]4OCc4cccc(F)c4)ncnc32)[C@H](O)[C@@H]1O` [Compound 8, (2R,3R,4S,5R)-2-(6-((1S,2S)-2-(3-fluorobenzyloxy)cyclopentylamino)-9H-purin-9-yl)-5-(hydroxymethyl)tetrahydrofuran-3,4-diol], the Ki turned out to be 3.61 nM.
